This is a selection; strong and weak results do not stand in their true shares. Some tests of the compounds listed are not included; inactive here does not mean inactive elsewhere. The source made the active and inactive calls.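 How the source made its calls: active means activation above the mean of all tested compounds plus 3 SD, computed per campaign excluding outliers beyond control limits (cut at about 13% in these data); inactive means the rest.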
Each compound was assayed against Kallikrein-7 (Homo sapiens) (UniProt P49862) (assay: activation of human kallikrein-7 proenzyme – biochemical, fluorescence intensity, primary screen (AID 652039)). Details: purified proKLK7, EDANS-DABCYL substrate fluorescence; at 7 µM; active compounds read high; 100% is mature enzyme control, 0% vehicle.

Sequences of proteins named here, by UniProt entry; tags and fusion partners are left off.
UniProt P49862, whole entry: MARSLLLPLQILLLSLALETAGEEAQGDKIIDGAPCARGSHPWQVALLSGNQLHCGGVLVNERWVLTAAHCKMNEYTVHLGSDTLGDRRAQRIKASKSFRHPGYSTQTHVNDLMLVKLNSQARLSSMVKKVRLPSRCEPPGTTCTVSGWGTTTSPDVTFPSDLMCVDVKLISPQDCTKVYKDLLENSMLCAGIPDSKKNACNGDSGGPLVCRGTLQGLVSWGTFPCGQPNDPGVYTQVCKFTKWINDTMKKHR

| Compound | activation |
| --- | --- |
| C=C(C)C#CC(O)(C(=O)OC1CCN(C)CC1)c1ccccc1 (stereo unspecified) | inactive: -0.46% |
| COc1ccc(Br)c(C(=O)NCC2(N3CCCCC3)CCCCC2)c1 | inactive: -0.22% |
| CC(C)Oc1ccc(C(=O)NCC2(N(C)C)CCCCC2)cc1 | inactive: 0.26% |
| O=C(OCCN1CCCC1)C(O)(c1ccccc1)c1ccccc1 | inactive: 0.02% |
| CN(C)c1cccc(C(=O)NCC2(N(C)C)CCCCC2)c1 | inactive: 0.98% |
| O=C(OC1CN2CCC1CC2)C(CO)(c1ccccc1)c1ccccc1 (stereo unspecified) | inactive: -0.28% |
| COc1cccc(C(=O)NCC2(N3CCCCC3)CCCCC2)c1 | inactive: -0.09% |
| COc1ccc(Cl)cc1C(=O)NCC1(N(C)C)CCCCC1 | inactive: 0.02% |
| O=C(NCC1(N2CCCCC2)CCCCC1)c1cccc(Cl)c1 | inactive: 0.41% |
| CN(C)C1(CNC(=O)c2ccc(Br)cc2)CCCCC1 | inactive: -0.07% |
| COc1cc(C(=O)NCC2(N(C)C)CCCCC2)c([N+](=O)[O-])cc1OC | inactive: -0.75% |
| C=CCN1CCN(CCOC(=O)C(O)(c2ccccc2)c2ccccc2)CC1 | inactive: 0.51% |
| O=C(NCC1(N2CCCCC2)CCCCC1)c1cc(F)c(F)cc1Cl | inactive: -0.24% |
| COc1ccc(C(=O)NCC2(N(C)C)CCCCC2)cc1 | inactive: 0.03% |
| CCN1CCCC(OC(=O)C2(O)c3ccccc3C=Cc3ccccc32)C1 (stereo unspecified) | inactive: 0.3% |
| Cc1cc(C(=O)NCC2(N3CCCCC3)CCCCC2)ccc1[N+](=O)[O-] | inactive: 0.5% |
| O=C(NCC1(N2CCCCC2)CCCCC1)c1cccc(Br)c1 | inactive: -0.14% |
| Cc1ccccc1C(=O)NCC1(N2CCCCC2)CCCCC1 | inactive: 0.1% |
| CN(C)c1ccc(C(=O)NCC2(N(C)C)CCCCC2)cc1 | inactive: -0.13% |
| CN(C)C1CCCC1OC(=O)C(O)(c1ccccc1)c1ccccc1 (stereo unspecified) | inactive: -0.25% |
| CCN(CC)CC(C)C(C)OC(=O)C(O)(c1ccccc1)c1ccccc1 (stereo unspecified) | inactive: -0.79% |
| COc1cc(SC)ccc1C(=O)NCC1(N(C)C)CCCCC1 | inactive: -0.38% |
| CC(C)N1C(=O)CC2(CCN(CCOC(=O)C(O)(c3ccccc3)c3ccccc3)CC2)C1=O | inactive: 0.32% |
| Cc1ccc(C(=O)NCC2(N3CCCCC3)CCCCC2)cc1 | inactive: 0.6% |
| O=C(NCC1(N2CCCCC2)CCCCC1)c1cc([N+](=O)[O-])ccc1Cl | inactive: 0.61% |
| CN1[C@@H]2CC[C@H]1CC(OC(=O)C(O)(c1ccccc1)c1ccccc1)C2 (stereo partly specified) | inactive: 0.01% |

Reference: PubChem BioAssay AID652039 (The Scripps Research Institute Molecular Screening Center, 2013)
